# Laboratory results: patent publication EP4610260B1, “ARYL HETEROCYCLIC KV1.3 INHIBITOR, PREPARATION METHOD THEREFOR, AND USE THEREOF” (Shanghai Shenshi Wise Technology Co., Ltd., priority 2022, dated 2024)
# Tested on: Kv1.3 potassium channel
# Assay: Whole-cell patch-clamp assay for inhibitory activity against Kv1.3 (peak current)
# Assay type: cell-based
# Settings: HEK293 cells stably expressing Kv1.3, room temperature
# Procedure: 1. Assay for inhibitory activity of compounds against Kv1.X
# HEK293 cells stably expressing Kv1.X (Kv1.1, Kv1.2, Kv1.3, Kv1.4, Kv1.5) potassium channels were cultured in DMEM medium containing 10% fetal bovine serum and 800 µg/mL G418 (geneticin) at a culture temperature of 37 °C and a carbon dioxide concentration of 5%.
# 1.2. Fluids used for recording
# The extracellular fluid contained 40 mM NaCl, 3.5 mM KCl, 1 mM MgCl2•6H2O, 2 mM CaCl2•2H2O, 10 mM D-glucose, 10 mM HEPES, 1.25 mM NaH2PO4•2H2O, and the pH was adjusted to 7.4 with NaOH. The intracellular fluid contained 20 mM KCl, 115 mM K-Aspartic, 1 mM MgCl2•6H2O, 5 mM EGTA, 10 mM HEPES, 2 mM Na2-ATP, and the pH was adjusted to 7.2 with KOH.
# The voltage stimulation protocol for recording whole-cell Kv1.X potassium currents via patch-clamp was as follows: After formation of a whole-cell seal, the cell membrane voltage was clamped at -80 mV, and then stepped to +40 mV for 500 ms. Data were acquired repeatedly every 30 s and the effect of the drug on Kv1.X currents was observed. […] Then, a slow capacitance compensation was given, and the membrane capacitance and series resistance were recorded. […]
# Once the whole-cell recorded Kv1.X current stabilized, drug administration was started. […] For each cell, the current detected in the compound-free extracellular liquid was used as its own control group. […]
substance,measurement,value
"3,4-Dichloro-2-(3-(piperidin-4-ylmethyl)-6,7-dihydro-5H-pyrrolo[2,1-c][1,2,4]triazol-6-yl)phenol [Example 17]",IC50,6.68 nM
